Values of other authors, collected in US20250332108A1 (Veradermics, Incorporated, priority 2024, published 2025).

Conditions: oral; cited from earlier work

For Nc1cc(N2CCCCC2)nc(N)[n+]1[O-] [Minoxidil], the “Absorption from the gastrointestinal tract” value is given as > 90%.
